# Test results: PubChem BioAssay (NCI)
#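 Step 1: Grow cells in 96-well plates. Step 2: Expose to compound for 48 hours at 5 concentrations. Step 3: Interpolate endpoints linearly; if unreached, use highest concentration. GI50 marks 50% less growth. Definition used: TGI = concentration required for complete inhibition of growth.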
# How the values were obtained:
# Assay in all cases: inhibition of tumour cell growth, NCI panel, 48 h
# HCT-116 colon = system: HCT-116 colon
# SF-295 CNS = system: SF-295 CNS
# MDA-MB-231 breast = system: MDA-MB-231 breast
# OVCAR-8 ovarian = system: OVCAR-8 ovarian
# K-562 leukemia = system: K-562 leukemia
# SK-MEL-28 melanoma = system: SK-MEL-28 melanoma
# UO-31 renal = system: UO-31 renal
# HOP-62 NSCLC = system: HOP-62 NSCLC
# IGROV1 ovarian = system: IGROV1 ovarian
# SF-268 CNS = system: SF-268 CNS
# CAKI-1 renal = system: CAKI-1 renal
# HCT-15 colon = system: HCT-15 colon
# SW-620 colon = system: SW-620 colon
# NCI-H23 lung = system: NCI-H23 lung
# HCC-2998 colon = system: HCC-2998 colon
# TK-10 renal = system: TK-10 renal
# DU-145 prostate = system: DU-145 prostate
# UACC-257 melanoma = system: UACC-257 melanoma
# NCI-H522 lung = system: NCI-H522 lung
# EKVX NSCLC = system: EKVX NSCLC
# HT29 colon = system: HT29 colon
# NCI/ADR-RES ovarian = system: NCI/ADR-RES ovarian
# CCRF-CEM leukemia = system: CCRF-CEM leukemia
# NCI-H322M lung = system: NCI-H322M lung
# OVCAR-4 ovarian = system: OVCAR-4 ovarian
# SK-OV-3 ovarian = system: SK-OV-3 ovarian
# HS 578T breast = system: HS 578T breast
# M14 melanoma = system: M14 melanoma
# MDA-N = system: MDA-N
# MALME-3M melanoma = system: MALME-3M melanoma
# 786-0 renal = system: 786-0 renal
# SK-MEL-2 melanoma = system: SK-MEL-2 melanoma
# U251 CNS = system: U251 CNS
# HOP-92 NSCLC = system: HOP-92 NSCLC
# UACC-62 melanoma = system: UACC-62 melanoma
# OVCAR-5 ovarian = system: OVCAR-5 ovarian
# SN12C renal = system: SN12C renal
# SF-539 CNS = system: SF-539 CNS
# NCI-H460 lung = system: NCI-H460 lung
# ACHN renal = system: ACHN renal
# COLO 205 colon = system: COLO 205 colon
# LOX IMVI melanoma = system: LOX IMVI melanoma
# A498 renal = system: A498 renal
# OVCAR-3 ovarian = system: OVCAR-3 ovarian
# T-47D breast = system: T-47D breast
# MDA-MB-435 = system: MDA-MB-435
# RPMI-8226 leukemia = system: RPMI-8226 leukemia
# A549 NSCLC = system: A549 NSCLC
# PC-3 prostate = system: PC-3 prostate
# SK-MEL-5 melanoma = system: SK-MEL-5 melanoma
# MCF7 breast = system: MCF7 breast
# SR leukemia = system: SR leukemia
# MOLT-4 leukemia = system: MOLT-4 leukemia
# KM12 colon = system: KM12 colon
# BT-549 breast = system: BT-549 breast
# NCI-H226 lung = system: NCI-H226 lung
# SNB-75 CNS = system: SNB-75 CNS
# HL-60(TB) leukemia = system: HL-60(TB) leukemia
# RXF 393 renal = system: RXF 393 renal
# SNB-19 CNS = system: SNB-19 CNS
compound,measurement,setting,value
O=[N+]([O-])C1([N+](=O)[O-])COCOC1,GI50,HCT-116 colon,> 100 µM
same,TGI,HCT-116 colon,> 100 µM
same,GI50,SF-295 CNS,> 100 µM
same,TGI,SF-295 CNS,> 100 µM
same,GI50,MDA-MB-231 breast,> 100 µM
same,TGI,MDA-MB-231 breast,> 100 µM
same,GI50,OVCAR-8 ovarian,> 100 µM
same,TGI,OVCAR-8 ovarian,> 100 µM
same,GI50,K-562 leukemia,24.5 µM
same,TGI,K-562 leukemia,> 100 µM
same,GI50,SK-MEL-28 melanoma,> 100 µM
same,TGI,SK-MEL-28 melanoma,> 100 µM
same,GI50,UO-31 renal,> 100 µM
same,TGI,UO-31 renal,> 100 µM
same,GI50,HOP-62 NSCLC,> 100 µM
same,TGI,HOP-62 NSCLC,> 100 µM
same,GI50,IGROV1 ovarian,27.5 µM
same,TGI,IGROV1 ovarian,> 100 µM
same,GI50,SF-268 CNS,> 100 µM
same,TGI,SF-268 CNS,> 100 µM
same,GI50,CAKI-1 renal,> 100 µM
same,TGI,CAKI-1 renal,> 100 µM
same,GI50,HCT-15 colon,28.9 µM
same,TGI,HCT-15 colon,> 100 µM
same,GI50,SW-620 colon,> 100 µM
same,TGI,SW-620 colon,> 100 µM
same,GI50,NCI-H23 lung,50.9 µM
same,TGI,NCI-H23 lung,> 100 µM
same,GI50,HCC-2998 colon,> 100 µM
same,TGI,HCC-2998 colon,> 100 µM
same,GI50,TK-10 renal,> 100 µM
same,TGI,TK-10 renal,> 100 µM
same,GI50,DU-145 prostate,> 100 µM
same,TGI,DU-145 prostate,> 100 µM
same,GI50,UACC-257 melanoma,65.9 µM
same,TGI,UACC-257 melanoma,> 100 µM
same,GI50,NCI-H522 lung,12.3 µM
same,TGI,NCI-H522 lung,32 µM
same,GI50,EKVX NSCLC,> 100 µM
same,TGI,EKVX NSCLC,> 100 µM
same,GI50,HT29 colon,42.2 µM
same,TGI,HT29 colon,> 100 µM
same,GI50,NCI/ADR-RES ovarian,56.5 µM
same,TGI,NCI/ADR-RES ovarian,> 100 µM
same,GI50,CCRF-CEM leukemia,94 µM
same,TGI,CCRF-CEM leukemia,> 100 µM
same,GI50,NCI-H322M lung,> 100 µM
same,TGI,NCI-H322M lung,> 100 µM
same,GI50,OVCAR-4 ovarian,> 100 µM
same,TGI,OVCAR-4 ovarian,> 100 µM
same,GI50,SK-OV-3 ovarian,> 100 µM
same,TGI,SK-OV-3 ovarian,> 100 µM
same,GI50,HS 578T breast,> 100 µM
same,TGI,HS 578T breast,> 100 µM
same,GI50,M14 melanoma,38.7 µM
same,TGI,M14 melanoma,> 100 µM
same,GI50,MDA-N,17.7 µM
same,TGI,MDA-N,41 µM
same,GI50,MALME-3M melanoma,33.4 µM
same,TGI,MALME-3M melanoma,> 100 µM
same,GI50,786-0 renal,> 100 µM
same,TGI,786-0 renal,> 100 µM
same,GI50,SK-MEL-2 melanoma,90.2 µM
same,TGI,SK-MEL-2 melanoma,> 100 µM
same,GI50,U251 CNS,> 100 µM
same,TGI,U251 CNS,> 100 µM
same,GI50,HOP-92 NSCLC,17.6 µM
same,TGI,HOP-92 NSCLC,65.3 µM
same,GI50,UACC-62 melanoma,81.9 µM
same,TGI,UACC-62 melanoma,> 100 µM
same,GI50,OVCAR-5 ovarian,> 100 µM
same,TGI,OVCAR-5 ovarian,> 100 µM
same,GI50,SN12C renal,> 100 µM
same,TGI,SN12C renal,> 100 µM
same,GI50,SF-539 CNS,> 100 µM
same,TGI,SF-539 CNS,> 100 µM
same,GI50,NCI-H460 lung,> 100 µM
same,TGI,NCI-H460 lung,> 100 µM
same,GI50,ACHN renal,> 100 µM
same,TGI,ACHN renal,> 100 µM
same,GI50,COLO 205 colon,47.3 µM
same,TGI,COLO 205 colon,> 100 µM
same,GI50,LOX IMVI melanoma,> 100 µM
same,TGI,LOX IMVI melanoma,> 100 µM
same,GI50,A498 renal,> 100 µM
same,TGI,A498 renal,> 100 µM
same,GI50,OVCAR-3 ovarian,> 100 µM
same,TGI,OVCAR-3 ovarian,> 100 µM
same,GI50,T-47D breast,44 µM
same,TGI,T-47D breast,> 100 µM
same,GI50,MDA-MB-435,17.9 µM
same,TGI,MDA-MB-435,57.6 µM
same,GI50,RPMI-8226 leukemia,63.5 µM
same,TGI,RPMI-8226 leukemia,> 100 µM
same,GI50,A549 NSCLC,> 100 µM
same,TGI,A549 NSCLC,> 100 µM
same,GI50,PC-3 prostate,> 100 µM
same,TGI,PC-3 prostate,> 100 µM
same,GI50,SK-MEL-5 melanoma,22.1 µM
same,TGI,SK-MEL-5 melanoma,> 100 µM
same,GI50,MCF7 breast,78.2 µM
same,TGI,MCF7 breast,> 100 µM
same,GI50,SR leukemia,29.8 µM
same,TGI,SR leukemia,> 100 µM
same,GI50,MOLT-4 leukemia,> 100 µM
same,TGI,MOLT-4 leukemia,> 100 µM
same,GI50,KM12 colon,61.9 µM
same,TGI,KM12 colon,> 100 µM
same,GI50,BT-549 breast,27.3 µM
same,TGI,BT-549 breast,92.6 µM
same,GI50,NCI-H226 lung,> 100 µM
same,TGI,NCI-H226 lung,> 100 µM
same,GI50,SNB-75 CNS,> 100 µM
same,TGI,SNB-75 CNS,> 100 µM
same,TGI,HL-60(TB) leukemia,> 100 µM
same,GI50,RXF 393 renal,> 100 µM
same,TGI,RXF 393 renal,> 100 µM
same,GI50,SNB-19 CNS,> 100 µM
same,TGI,SNB-19 CNS,> 100 µM
COc1ccc2c3c1OC1C4(OC)C=CC5(CC4C(C)=O)[C@@H](C2)N(C)CC[C@]315 (some centres not stated),TGI,HCT-116 colon,> 100 µM
same,TGI,SF-295 CNS,> 100 µM
same,TGI,MDA-MB-231 breast,> 100 µM
same,TGI,OVCAR-8 ovarian,> 100 µM
same,TGI,K-562 leukemia,> 100 µM
same,TGI,SK-MEL-28 melanoma,> 100 µM
same,TGI,UO-31 renal,> 100 µM
same,TGI,HOP-62 NSCLC,> 100 µM
same,TGI,IGROV1 ovarian,> 100 µM
same,TGI,SF-268 CNS,> 100 µM
same,TGI,CAKI-1 renal,> 100 µM
same,TGI,HCT-15 colon,> 100 µM
same,TGI,SW-620 colon,> 100 µM
same,TGI,NCI-H23 lung,> 100 µM
same,TGI,HCC-2998 colon,> 100 µM
same,TGI,TK-10 renal,> 100 µM
same,TGI,DU-145 prostate,> 100 µM
same,TGI,UACC-257 melanoma,> 100 µM
same,TGI,NCI-H522 lung,> 100 µM
same,TGI,EKVX NSCLC,> 100 µM
same,TGI,HT29 colon,> 100 µM
same,TGI,NCI/ADR-RES ovarian,> 100 µM
same,TGI,CCRF-CEM leukemia,> 100 µM
same,TGI,NCI-H322M lung,> 100 µM
same,TGI,OVCAR-4 ovarian,> 100 µM
same,TGI,SK-OV-3 ovarian,> 100 µM
same,TGI,HS 578T breast,> 100 µM
same,TGI,M14 melanoma,> 100 µM
same,TGI,MDA-N,> 100 µM
same,TGI,MALME-3M melanoma,> 100 µM
same,TGI,786-0 renal,> 100 µM
same,TGI,SK-MEL-2 melanoma,> 100 µM
same,TGI,U251 CNS,> 100 µM
same,TGI,HOP-92 NSCLC,> 100 µM
same,TGI,UACC-62 melanoma,> 100 µM
same,TGI,OVCAR-5 ovarian,> 100 µM
same,TGI,SN12C renal,> 100 µM
same,TGI,SF-539 CNS,> 100 µM
same,TGI,NCI-H460 lung,> 100 µM
same,TGI,ACHN renal,> 100 µM
same,TGI,COLO 205 colon,> 100 µM
same,TGI,LOX IMVI melanoma,> 100 µM
same,TGI,A498 renal,> 100 µM
same,TGI,OVCAR-3 ovarian,> 100 µM
same,TGI,T-47D breast,> 100 µM
same,TGI,MDA-MB-435,> 100 µM
same,TGI,RPMI-8226 leukemia,> 100 µM
same,TGI,A549 NSCLC,> 100 µM
same,TGI,PC-3 prostate,> 100 µM
same,TGI,SK-MEL-5 melanoma,> 100 µM
same,TGI,MCF7 breast,> 100 µM
same,TGI,SR leukemia,> 100 µM
same,TGI,MOLT-4 leukemia,> 100 µM
same,TGI,KM12 colon,> 100 µM
same,TGI,NCI-H226 lung,> 100 µM
same,TGI,HL-60(TB) leukemia,> 100 µM
same,TGI,RXF 393 renal,> 100 µM
same,TGI,SNB-19 CNS,> 100 µM
